Test [1] addresses T1, human Nectin-4 (Homo sapiens, UniProt Q96NY8).
T1 sequence (Q96NY8 32-510): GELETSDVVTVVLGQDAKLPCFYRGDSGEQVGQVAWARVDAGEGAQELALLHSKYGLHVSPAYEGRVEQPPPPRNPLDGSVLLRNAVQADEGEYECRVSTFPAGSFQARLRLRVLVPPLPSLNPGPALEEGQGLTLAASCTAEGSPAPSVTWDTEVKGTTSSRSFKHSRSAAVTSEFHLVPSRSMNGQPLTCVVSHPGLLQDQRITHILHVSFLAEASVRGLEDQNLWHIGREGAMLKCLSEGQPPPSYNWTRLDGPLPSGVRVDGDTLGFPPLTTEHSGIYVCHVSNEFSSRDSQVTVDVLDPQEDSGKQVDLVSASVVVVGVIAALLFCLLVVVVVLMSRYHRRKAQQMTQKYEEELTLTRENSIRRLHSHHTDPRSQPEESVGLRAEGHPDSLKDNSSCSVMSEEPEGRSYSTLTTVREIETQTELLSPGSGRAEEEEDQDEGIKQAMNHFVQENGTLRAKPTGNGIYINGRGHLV
Briefly: Nectin-4 competition binding assay (fluorescence polarisation). The following applies: competition with fluorescent peptide SEQ ID NO: 217. On the procedure:
Peptides were diluted to an appropriate concentration in assay buffer as described in the direct binding assay with a maximum of 5% DMSO, then serially diluted 1 in 2. Five μL of diluted peptide was added to the plate followed by 10 μL of human Nectin-4, then 10 μL fluorescent peptide added. Measurements were conducted as for the direct binding assay, however the gain was determined prior to the first measurement. Data analysis was in Systat Sigmaplot version 12.0 where the mP values were fit to a user defined cubic equation to generate a Ki value: • f=ymin+(ymax−ymin)/Lig*((Lig*((2*((Klig+Kcomp+Lig+Comp-Prot*c)^2-3*(Kcomp*(Lig-Prot*c)+Klig*(Comp-Prot*c)+Klig*Kcomp))^0.5*COS(ARCCOS((−2*(Klig+Kcomp+Lig+Comp-Prot*c)^3+9*(Klig+Kcomp+Lig+Comp-Prot*c)*(Kcomp*(Lig-Prot*c)+Klig*(Comp-Prot*c)+Klig*Kcomp)−27*(−1*Klig*Kcomp*Prot*c)/(2*((((Klig+Kcomp+Lig+Comp-Prot*c)^2−3*(Kcomp*(Lig-Prot*c)+Klig*(Comp-Prot*c)+Klig*Kcomp))^3)^0.5)))/3))−(Klig+Kcomp+Lig+Comp-Prot*c)))/((3*Klig)+((2*((Klig+Kcomp+Lig+Comp-Prot*c)^2−3*(Kcomp*(Lig-Prot*c)+Klig*(Comp-Prot*c)+Klig*Kcomp))^0.5*COS (ARCCOS ((−2*(Klig+Kcomp+Lig+Comp-Prot*c)^3+9*(Klig+Kcomp+Lig+Comp-Prot*c)*(Kcomp*(Lig-Prot*c)+Klig*(Comp-Prot*c)+Klig*Kcomp)-27*(−1*Klig*Kcomp*Prot*c))/(2*((((Klig+Kcomp+Lig+Comp-Prot*c)^2-3*(Kcomp*(Lig-Prot*c)+Klig*(Comp-Prot+c)+Klig*Kcomp))^3)^0.5))/3)−(Klig+Kcomp+Lig+Comp-Prot*c)))).
“Lig”, “KLig” and “Prot” were all defined values relating to: fluorescent peptide concentration, the Kd of the fluorescent peptide and Nectin concentration respectively.

For test [2], the target named is T1, human Nectin-4. The test can be described thus: Nectin-4 direct binding assay (fluorescence polarisation). On the procedure: Affinity of the peptides of the invention for human Nectin-4 (Ki) was determined using a fluorescence polarisation assay, in accordance with the methods disclosed in WO 2016/067035. Peptides of the invention with a fluorescent tag (either fluorescein, SIGMA or Alexa Fluor488™, Fisher Scientific) were diluted to 2.5 nM in PBS with 0.01% tween 20 or 50 mM HEPES with 100 mM NaCl and 0.01% tween pH 7.4 (both referred to as assay buffer). This was combined with a titration of protein in the same assay buffer as the peptide to give 1 nM peptide in a total volume of 25 μL in a black walled and bottomed low bind low volume 384 well plates, typically 5 μL assay buffer, 10 μL protein then 10 μL fluorescent peptide. […] Measurements were conducted on a BMG PHERAstar FS equipped with an “FP 485 520 520” optic module which excites at 485 nm and detects parallel and perpendicular emission at 520 nm. The PHERAstar FS was set at 25° C. with 200 flashes per well and a positioning delay of 0.1 second, with each well measured at 5 to 10 minute intervals for 60 minutes. The gain used for analysis was determined for each tracer at the end of the 60 minutes where there was no protein in the well. Data was analysed using Systat Sigmaplot version 12.0. mP values were fit to a user defined quadratic equation to generate a Kd value: f=ymin+(ymax−ymin)/Lig*((x+Lig+Kd)/2-sqrt((((x+Lig+Kd)/2)^2)−(Lig*x))). […]

The target in test [3] is T2, human Nectin-4 (Homo sapiens, UniProt Q96NY8).
T2 sequence (Q96NY8 32-349): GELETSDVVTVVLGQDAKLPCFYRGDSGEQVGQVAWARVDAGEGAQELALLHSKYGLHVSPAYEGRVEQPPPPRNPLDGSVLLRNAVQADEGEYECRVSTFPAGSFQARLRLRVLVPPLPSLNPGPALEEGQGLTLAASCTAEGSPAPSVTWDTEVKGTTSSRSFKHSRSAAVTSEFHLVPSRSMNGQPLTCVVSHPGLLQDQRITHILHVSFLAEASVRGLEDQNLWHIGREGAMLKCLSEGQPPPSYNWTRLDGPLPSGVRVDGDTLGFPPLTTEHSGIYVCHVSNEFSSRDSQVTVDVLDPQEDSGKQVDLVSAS
The test can be described thus: Nectin-4 Biacore SPR binding assay. The following applies: read-out: Human SPR Kd; peptide ligands (Table 3).

We go through 44 compounds from patent US12459974B2, “Bicyclic peptide ligands specific for Nectin-4” (priority 2018, dated 2025).

As to `CC[C@H](C)[C@@H]1NC(=O)[C@@H]2CCCN2C(=O)[C@H](Cc2c[nH]c3ccccc23)NC(=O)[C@H](CO)NC(=O)[C@H](Cc2c[nH]c3ccccc23)NC(=O)[C@H](CC(N)=O)NC(=O)[C@H](CCCCN)NC(=O)[C@H](CCSC)NC(=O)[C@@H]2CSCCC(=O)N3CN(CN(C3)C(=O)CCSC[C@H](NC(=O)[C@H](C)N)C(=O)N3CCC[C@H]3C(=O)N[C@@H](Cc3ccccc3)C(=O)NCC(=O)N2)C(=O)CCSC[C@@H](C(=O)N[C@H](C(=O)N[C@H](C)C(=O)N[C@@H](CCCCN)C(N)=O)[C@@H](C)O)NC(=O)[C@H](Cc2c[nH]c3ccccc23)NC1=O` [BCY7368, A-(SEQ ID NO: 1)-T[dA]K], the Ki – broadly, a measure of affinity in units of concentration, obtained from inhibition or displacement – on human Nectin-4 [1] (read-out: Ki) was found to be 23 nM.

With `CC[C@H](C)[C@@H]1NC(=O)[C@H](CCCNC(=N)N)NC(=O)[C@H](CC(N)=O)NC(=O)[C@@H]2CSCCC(=O)N3CN(CN(C3)C(=O)CCSC[C@H](NC(=O)[C@H](Cc3c[nH]c4ccccc34)NC(=O)[C@H](CCCCN)NC(=O)[C@H](CCC(N)=O)NC(C)=O)C(=O)N[C@@H](C)C(=O)N3CCC[C@H]3C(=O)N[C@@H](CC(C)C)C(=O)N[C@@H](CO)C(=O)N[C@@H](C)C(=O)N[C@@H](Cc3ccc(O)cc3)C(=O)N[C@@H](Cc3c[nH]c4ccccc34)C(=O)N2)C(=O)CCSC[C@@H](C(N)=O)NC1=O` [BCY7628, Ac-QKW-(SEQ ID NO: 105)], the Ki on human Nectin-4 [1] (read-out: Ki) was determined as 23 nM.

Consider “(MeO-dPEG12) (PEG3) (PEG3) (SEQ ID NO: 115) [BCY8094]”, for which the Ki on human Nectin-4 [1] (read-out: Ki) was 28.9 nM.

Turning to (MeO-dPEG12) (SEQ ID NO: 115) [BCY8087], the Ki on human Nectin-4 [1] (read-out: Ki) was 17.9 nM.

With “(PEG3) (PEG3) (SEQ ID NO: 115) [BCY7815]”, on human Nectin-4 [1] (read-out: Ki), the Ki came out at 32 nM.

As to “ACPFGCHTDWSWPIWCA-Sar6-K(FI) [reference compound]”, the Kd (as a rule, the equilibrium constant for the complex coming apart) at human Nectin-4 [2] (fluorescent tracer peptide of the competition assay) came to 5 nM.

On to Ac-(SEQ ID NO: 11) [BCY7657], for which the Ki at human Nectin-4 [1] (read-out: Ki) was 23.2 nM.

Regarding Ac-(SEQ ID NO: 60) [BCY7616], on human Nectin-4 [1] (read-out: Ki), the Ki is 51 nM.

For Ac-(SEQ ID NO: 73) [BCY7535], the Ki at human Nectin-4 [1] (read-out: Ki) stood at 64 nM.

For Ac-(SEQ ID NO: 75) [BCY7541], on human Nectin-4 [1] (read-out: Ki), the Ki was 76.5 nM.

Take Ac-(SEQ ID NO: 78) [BCY7580]: the Ki on human Nectin-4 [1] (read-out: Ki) was determined as 13.5 nM.

Turning to Ac-(SEQ ID NO: 79) [BCY7581], the Ki at human Nectin-4 [1] (read-out: Ki) is 19.4 nM.

Ac-(SEQ ID NO: 82) [BCY7585]: on human Nectin-4 [1] (read-out: Ki), the Ki was 18.5 nM.

The compound Ac-(SEQ ID NO: 83) [BCY7588] showed a Ki at human Nectin-4 [1] of 342 nM.

The compound Ac-(SEQ ID NO: 93) [BCY7598] registered a Ki at human Nectin-4 [1] of 74.9 nM.

As to Ac-(SEQ ID NO: 100) [BCY7615], on human Nectin-4 [1] (read-out: Ki), the Ki is 28.4 nM.

Turning to Ac-(SEQ ID NO: 112) [BCY7664], the Ki on human Nectin-4 [1] (read-out: Ki) turned out to be 70 nM.

For the compound Ac-(SEQ ID NO: 114) [BCY7668], at human Nectin-4 [1] (read-out: Ki), the Ki stood at 424 nM.

Turning to Ac-(SEQ ID NO: 115) [BCY7765], the Ki at human Nectin-4 [1] (read-out: Ki) was found to be 8.7 nM. Further, on human Nectin-4 [3], the Kd came to 24.9 nM.

With “Ac-(SEQ ID NO: 116) (MeO-dPEG12) linked to D-Lys6 [BCY8084]”, at human Nectin-4 [1] (read-out: Ki), the inhibitory constant (Ki) was found to be 26.4 nM.

Ac-(SEQ ID NO: 116) [BCY7816]: the Ki at human Nectin-4 [1] (read-out: Ki) came to 36 nM.

Take Ac-(SEQ ID NO: 117) [BCY7817]: the Ki on human Nectin-4 [1] (read-out: Ki) was 14 nM.

In the case of “Ac-(SEQ ID NO: 119) (MeO-dPEG12) linked to Lys5 [BCY8088]”, on human Nectin-4 [1] (read-out: Ki), the Ki amounted to 8.9 nM.

“Ac-(SEQ ID NO: 120) (MeO-dPEG12) linked to D-Lys3 [BCY8089]”: the Ki on human Nectin-4 [1] (read-out: Ki) came out at 8 nM.

For “Ac-(SEQ ID NO: 121) (MeO-dPEG12) linked to Lys4 [BCY8090]”, the Ki at human Nectin-4 [1] (read-out: Ki) was found to be 57 nM.

For the compound “Ac-(SEQ ID NO: 122) (MeO-dPEG12) linked to Lys6 [BCY8091]”, at human Nectin-4 [1] (read-out: Ki), the inhibition constant Ki stood at 23 nM.

As for Ac-(SEQ ID NO: 131) [BCY7889], on human Nectin-4 [1] (read-out: Ki), the Ki came to 58.1 nM.

Regarding Ac-(SEQ ID NO: 132) [BCY7890], the Ki at human Nectin-4 [1] (read-out: Ki) turned out to be 98.9 nM.

In the case of Ac-(SEQ ID NO: 135) [BCY7894], the Ki on human Nectin-4 [1] (read-out: Ki) was 126 nM.

On to Ac-(SEQ ID NO: 136) [BCY7895], for which the Ki at human Nectin-4 [1] (read-out: Ki) is 49.1 nM.

Consider Ac-(SEQ ID NO: 137) [BCY7896], for which the Ki at human Nectin-4 [1] (read-out: Ki) is 44 nM.

As to Ac-(SEQ ID NO: 138) [BCY7897], the Ki on human Nectin-4 [1] amounted to 166 nM.

On to Ac-(SEQ ID NO: 139) [BCY7902], for which the Ki at human Nectin-4 [1] (read-out: Ki) amounted to 4 nM.

With Ac-(SEQ ID NO: 141) [BCY7904], the Ki at human Nectin-4 [1] (read-out: Ki) was 8 nM.

As to Ac-(SEQ ID NO: 142) [BCY7906], the Ki on human Nectin-4 [1] (read-out: Ki) amounted to 6 nM.

On to Ac-(SEQ ID NO: 145) [BCY7911], for which the Ki at human Nectin-4 [1] (read-out: Ki) was 13 nM.

On to Ac-(SEQ ID NO: 147) [BCY7913], for which, at human Nectin-4 [1] (read-out: Ki), the Ki turned out to be 16 nM.

For the compound Ac-(SEQ ID NO: 149) [BCY7915], the Ki at human Nectin-4 [1] (read-out: Ki) was determined as 20 nM.

On to Ac-(SEQ ID NO: 150) [BCY7916], for which, at human Nectin-4 [1] (read-out: Ki), the Ki turned out to be 45 nM.

In the case of Ac-(SEQ ID NO: 164) [BCY8042], on human Nectin-4 [1] (read-out: Ki), the Ki turned out to be 20.4 nM.

As for Ac-(SEQ ID NO: 165) [BCY8043], on human Nectin-4 [1] (read-out: Ki), the Ki was found to be 8.8 nM.

Ac-(SEQ ID NO: 211) [BCY8831]: the Kd on human Nectin-4 [3] stood at 2.14 nM.

Regarding “Ac-[dD][dD][dD]-(SEQ ID NO: 115) [BCY8029]”, the Ki on human Nectin-4 [1] (read-out: Ki) was determined as 77.8 nM.

FI-A-(SQ ID NO: 1)-A [80-09-02-N006] yielded a Ki on human Nectin-4 [2] (direct binding, fluorescently tagged peptide, TATA scaffold) of 5 nM.
